Results published in patent US20050049402A1 (Amgen, published 2005).

Chains of the proteins cited; added tags and fusions are not shown. Residues count along the entry.
UniProt P01375, 77-233: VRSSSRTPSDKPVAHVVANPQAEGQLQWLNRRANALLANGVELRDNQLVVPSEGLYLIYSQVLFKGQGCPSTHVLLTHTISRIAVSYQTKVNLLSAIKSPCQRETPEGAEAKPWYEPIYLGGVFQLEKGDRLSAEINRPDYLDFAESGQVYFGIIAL

How the values were obtained:
[1] = molecular target: T1, human TNFα (Tumor Necrosis Factor-alpha), soluble (human, UniProt P01375 77-233); experiment: cell-based or functional assay
[2] = molecular target: T1, human TNFα (Tumor Necrosis …); experiment: KinExA, TNFα counted as one trimer
Protocol: (§1) The kinetic measurements of the anti-TNFα antibodies were evaluated using KinExA® and BIACORE® technologies. The KinExA® method involves solution-based determination of formal affinity measurements at equilibrium. To measure the binding kinetics of each human anti-TNFα antibody, two experiments in replicates of three were performed. In both experiments a known concentration of antigen was titrated and a different antibody concentration was added to each antigen titration and allowed to reach binding equilibrium. […] The results were analyzed by dual curve analysis. […] In addition, to negate the possibility of avidity effects, Fab fragments were generated by papain cleavage and the kinetic analysis was repeated (see Table 24).

[3] = molecular target: T1, human TNFα (Tumor Necrosis …); experiment: cell-based or functional assay; remark: listed apart in the source
[4] = molecular target: T1, human TNFα (Tumor Necrosis …); experiment: KinExA, TNFα counted as three monomers
Protocol: as §1

[5] = molecular target: T1, human TNFα (Tumor Necrosis …); experiment: cell-based or functional assay; remark: listed apart in the source

B1: Infliximab (antibody, V domains shown)
VH: EVKLEESGGGLVQPGGSMKLSCVASGFIFSNHWMNWVRQSPEKGLEWVAEIRSKSINSATHYAESVKGRFTISRDDSKSAVYLQMTDLRTEDTGVYYCSRNYYGSTYDYWGQGTTLTVSS
VL: DILLTQSPAILSVSPGERVSFSCRASQFVGSSIHWYQQRTNGSPRLLIKYASESMSGIPSRFSGSGSGTDFTLSINTVESEDIADYYCQQSHSWPFTFGSGTNLEVKR
B1 was tested, and the “IC50 1 hr Pre-incubation, TNF induced apoptosis in MCF-7 cells” value [1] was 0.0324 nM, the “IC50 18 hr Pre-incubation, TNF induced apoptosis in MCF-7 cells” value [1] was 0.0317 nM and the Kd [2] was 0.0047 nM. The “Kd (M) High” value [2] was 6.9e-12 M, the “Kd (M) Low” value [2] was 2.93e-12 M and the “Whole Blood IC50, TNFα-induced IL-8 production” value [3] was 0.546 nM. For the same binder, the Kd [4] was 0.0141 nM, the “Kd (M) High” value [4] was 2.07e-11 M and the “Kd (M) Low” value [4] was 8.78e-12 M. For the same binder, the “In vivo Potency (IC50), ALT, hTNFα/D-GalN hepatic injury in mice” value [5] was 41 nM and the “In vivo Potency (IC50), human TNFα-induced IL-6 in mice” value [5] was 43 nM.
